Experiment: Comparative pharmacokinetic data in mice (plasma and brain)
Conditions: male swiss mice
[1] = normalized at 1 mg of base/kg, 24 hours sampling

With “(3S)-4-{4-[3-(3-methylpiperidin-1-yl)propoxy]phenyl}pyridine 1-oxide 1,2-ethanedisulfonate [Example 14]” the “ratio of plasma AUC over the AUC of the dihydrochloride tetrahydrate” value was 0.7, the AUC brain [1] was 676 ng·h/mg and the AUC plasma [1] was 438 ng·h/mg.

Source: patent publication US11179329B2, “Therapeutical use of H3-ligands” (BIOPROJET Pharma, priority 2017, dated 2021)
